{"source": "paper PMC3103057", "about": "(Journal of medicinal chemistry, 2011)", "tested_on": "wildtype and homozygous mutant N370S GC fibroblasts", "test": "Chaperone activity: translocation of GC to the lysosome in fibroblasts", "format": "cell-based, human"}
{"smiles": "Cc1ccc(S(=O)(=O)N2CCN(c3ncnc4ccccc34)CC2)cc1", "note": "[Compound 62, 4-(4-Tosylpiperazin-1-yl)quinazoline]", "values": [{"measurement": "amount of GC localized to the lysosome", "value": "clear increase of the amount of GC localized to the lysosome"}]}
